Laboratory results taken from PubChem BioAssay (EPA / NIEHS).
This is a selection; strong and weak results do not stand in their true shares. Results filed as inconclusive are left out. Calls of active or inactive are those of the source. Rule for the calls, unless noted: active = hit-call score of the fitted dose curve at least 0.9, where 1 is the maximum; inconclusive = response in the unintended direction; inactive = score below 0.9.

By UniProt entry, the sequences of proteins in these tests, tags left out.
UniProt P37136, whole entry: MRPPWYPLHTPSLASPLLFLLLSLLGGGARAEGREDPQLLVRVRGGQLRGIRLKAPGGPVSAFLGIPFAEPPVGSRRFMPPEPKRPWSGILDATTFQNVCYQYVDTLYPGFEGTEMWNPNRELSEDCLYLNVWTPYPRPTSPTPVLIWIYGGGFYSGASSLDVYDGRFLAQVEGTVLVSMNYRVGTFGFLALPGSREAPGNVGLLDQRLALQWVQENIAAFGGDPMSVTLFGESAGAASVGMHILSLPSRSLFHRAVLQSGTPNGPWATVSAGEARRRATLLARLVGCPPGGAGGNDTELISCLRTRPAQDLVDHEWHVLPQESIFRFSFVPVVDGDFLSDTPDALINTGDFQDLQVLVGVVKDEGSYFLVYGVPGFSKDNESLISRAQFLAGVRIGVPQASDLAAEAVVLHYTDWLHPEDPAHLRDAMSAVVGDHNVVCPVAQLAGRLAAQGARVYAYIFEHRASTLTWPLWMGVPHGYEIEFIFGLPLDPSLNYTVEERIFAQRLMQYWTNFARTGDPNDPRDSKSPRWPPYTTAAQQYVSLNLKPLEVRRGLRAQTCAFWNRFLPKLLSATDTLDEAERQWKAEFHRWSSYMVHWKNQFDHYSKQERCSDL
UniProt P30542, whole entry: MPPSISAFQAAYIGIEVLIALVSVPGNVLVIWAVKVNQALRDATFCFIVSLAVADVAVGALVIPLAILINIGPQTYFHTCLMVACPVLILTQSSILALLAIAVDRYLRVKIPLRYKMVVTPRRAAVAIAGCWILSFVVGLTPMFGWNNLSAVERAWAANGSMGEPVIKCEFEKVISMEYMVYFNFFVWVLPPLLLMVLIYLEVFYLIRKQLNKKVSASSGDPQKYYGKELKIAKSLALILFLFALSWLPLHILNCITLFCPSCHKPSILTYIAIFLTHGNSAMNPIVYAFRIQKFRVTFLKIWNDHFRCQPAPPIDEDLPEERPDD
UniProt P21728, whole entry: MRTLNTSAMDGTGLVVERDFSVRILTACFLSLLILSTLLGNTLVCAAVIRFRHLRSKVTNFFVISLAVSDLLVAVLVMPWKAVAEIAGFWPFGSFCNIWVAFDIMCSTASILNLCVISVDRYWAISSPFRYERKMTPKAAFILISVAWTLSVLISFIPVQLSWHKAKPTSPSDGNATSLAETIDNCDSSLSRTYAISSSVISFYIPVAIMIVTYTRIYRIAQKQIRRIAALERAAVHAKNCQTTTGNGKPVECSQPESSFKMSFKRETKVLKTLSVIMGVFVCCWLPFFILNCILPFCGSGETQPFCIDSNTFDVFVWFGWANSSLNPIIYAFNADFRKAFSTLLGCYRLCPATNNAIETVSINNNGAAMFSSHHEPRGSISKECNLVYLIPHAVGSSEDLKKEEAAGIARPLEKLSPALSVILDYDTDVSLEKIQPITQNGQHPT
UniProt Q04400, whole entry: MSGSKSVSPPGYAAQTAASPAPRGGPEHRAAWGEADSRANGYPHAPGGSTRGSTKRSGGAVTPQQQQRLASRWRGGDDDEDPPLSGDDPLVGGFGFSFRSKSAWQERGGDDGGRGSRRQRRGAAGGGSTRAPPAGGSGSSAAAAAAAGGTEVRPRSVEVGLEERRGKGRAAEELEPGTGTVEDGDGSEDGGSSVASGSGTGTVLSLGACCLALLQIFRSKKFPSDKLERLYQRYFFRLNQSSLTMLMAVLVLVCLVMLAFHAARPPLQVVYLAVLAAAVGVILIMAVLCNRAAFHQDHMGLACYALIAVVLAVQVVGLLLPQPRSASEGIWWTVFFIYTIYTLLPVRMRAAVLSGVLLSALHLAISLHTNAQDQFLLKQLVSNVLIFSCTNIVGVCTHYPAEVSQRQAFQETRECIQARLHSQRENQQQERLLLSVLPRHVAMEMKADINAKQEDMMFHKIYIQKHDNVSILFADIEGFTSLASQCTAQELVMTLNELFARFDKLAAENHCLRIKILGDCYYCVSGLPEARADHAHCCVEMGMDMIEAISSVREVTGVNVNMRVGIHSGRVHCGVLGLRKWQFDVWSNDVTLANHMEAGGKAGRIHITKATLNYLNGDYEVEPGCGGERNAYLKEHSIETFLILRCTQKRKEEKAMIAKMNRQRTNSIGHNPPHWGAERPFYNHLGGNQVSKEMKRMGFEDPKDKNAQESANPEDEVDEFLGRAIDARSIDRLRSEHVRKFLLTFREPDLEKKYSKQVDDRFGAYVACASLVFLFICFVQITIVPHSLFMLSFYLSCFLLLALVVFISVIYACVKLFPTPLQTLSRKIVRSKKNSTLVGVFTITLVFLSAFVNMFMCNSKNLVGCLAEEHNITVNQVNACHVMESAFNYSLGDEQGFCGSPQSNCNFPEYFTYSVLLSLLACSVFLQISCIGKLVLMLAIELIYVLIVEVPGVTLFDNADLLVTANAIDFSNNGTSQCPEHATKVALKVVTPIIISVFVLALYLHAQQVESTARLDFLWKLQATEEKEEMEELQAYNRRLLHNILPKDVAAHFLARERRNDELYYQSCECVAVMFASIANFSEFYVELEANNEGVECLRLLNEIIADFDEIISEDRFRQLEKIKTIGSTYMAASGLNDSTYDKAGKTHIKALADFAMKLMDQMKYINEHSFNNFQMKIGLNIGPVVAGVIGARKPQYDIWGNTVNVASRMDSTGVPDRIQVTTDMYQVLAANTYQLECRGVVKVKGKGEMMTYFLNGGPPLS
UniProt O97775, whole entry: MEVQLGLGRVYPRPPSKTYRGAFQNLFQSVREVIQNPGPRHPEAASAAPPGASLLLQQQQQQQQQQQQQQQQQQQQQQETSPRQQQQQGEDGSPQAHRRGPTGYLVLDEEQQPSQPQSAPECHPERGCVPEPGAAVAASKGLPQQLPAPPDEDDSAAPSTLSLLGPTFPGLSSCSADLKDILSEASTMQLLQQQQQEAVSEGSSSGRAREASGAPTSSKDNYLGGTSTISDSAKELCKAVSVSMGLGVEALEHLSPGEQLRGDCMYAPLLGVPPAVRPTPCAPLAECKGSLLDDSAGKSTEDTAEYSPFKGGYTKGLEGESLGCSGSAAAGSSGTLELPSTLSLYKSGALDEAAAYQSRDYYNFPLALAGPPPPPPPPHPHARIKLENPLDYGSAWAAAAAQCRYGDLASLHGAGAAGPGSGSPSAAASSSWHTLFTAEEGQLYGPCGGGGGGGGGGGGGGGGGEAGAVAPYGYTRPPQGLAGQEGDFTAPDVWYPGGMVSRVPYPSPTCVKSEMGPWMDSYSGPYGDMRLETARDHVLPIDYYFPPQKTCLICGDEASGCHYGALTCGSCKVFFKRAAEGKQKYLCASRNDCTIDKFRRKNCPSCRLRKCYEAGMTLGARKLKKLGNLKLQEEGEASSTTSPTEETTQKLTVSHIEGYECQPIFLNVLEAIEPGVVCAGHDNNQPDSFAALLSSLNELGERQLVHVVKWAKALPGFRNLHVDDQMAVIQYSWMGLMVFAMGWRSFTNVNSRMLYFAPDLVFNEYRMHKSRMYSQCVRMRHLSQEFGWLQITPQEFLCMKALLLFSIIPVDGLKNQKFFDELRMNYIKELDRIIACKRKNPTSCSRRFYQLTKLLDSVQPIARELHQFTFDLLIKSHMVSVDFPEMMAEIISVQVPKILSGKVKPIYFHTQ
UniProt P37231, whole entry: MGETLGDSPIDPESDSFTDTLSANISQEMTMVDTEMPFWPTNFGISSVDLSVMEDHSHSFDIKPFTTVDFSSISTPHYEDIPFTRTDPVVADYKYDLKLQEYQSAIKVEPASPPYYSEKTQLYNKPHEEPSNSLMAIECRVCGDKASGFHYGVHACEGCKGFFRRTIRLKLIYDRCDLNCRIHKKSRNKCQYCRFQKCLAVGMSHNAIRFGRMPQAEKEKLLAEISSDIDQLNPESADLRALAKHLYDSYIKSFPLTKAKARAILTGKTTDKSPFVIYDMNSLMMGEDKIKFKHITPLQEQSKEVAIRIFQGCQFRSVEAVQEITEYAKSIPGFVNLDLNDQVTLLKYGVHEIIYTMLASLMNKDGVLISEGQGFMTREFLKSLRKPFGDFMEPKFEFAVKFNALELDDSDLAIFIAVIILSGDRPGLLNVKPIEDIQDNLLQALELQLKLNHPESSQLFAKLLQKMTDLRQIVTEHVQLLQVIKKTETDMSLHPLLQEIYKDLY
UniProt P19793, whole entry: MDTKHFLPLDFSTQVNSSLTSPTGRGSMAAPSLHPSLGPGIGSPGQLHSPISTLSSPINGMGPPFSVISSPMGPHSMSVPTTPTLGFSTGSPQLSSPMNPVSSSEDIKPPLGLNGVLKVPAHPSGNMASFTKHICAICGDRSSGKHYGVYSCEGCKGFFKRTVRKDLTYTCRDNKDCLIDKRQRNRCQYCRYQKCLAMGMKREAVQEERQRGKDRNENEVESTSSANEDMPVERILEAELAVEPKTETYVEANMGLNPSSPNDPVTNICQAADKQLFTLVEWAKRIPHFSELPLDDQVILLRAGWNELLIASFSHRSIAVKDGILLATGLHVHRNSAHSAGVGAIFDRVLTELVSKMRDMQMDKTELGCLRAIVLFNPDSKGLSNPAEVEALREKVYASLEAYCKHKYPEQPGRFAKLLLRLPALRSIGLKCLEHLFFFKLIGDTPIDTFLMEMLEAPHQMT
UniProt P05979, whole entry: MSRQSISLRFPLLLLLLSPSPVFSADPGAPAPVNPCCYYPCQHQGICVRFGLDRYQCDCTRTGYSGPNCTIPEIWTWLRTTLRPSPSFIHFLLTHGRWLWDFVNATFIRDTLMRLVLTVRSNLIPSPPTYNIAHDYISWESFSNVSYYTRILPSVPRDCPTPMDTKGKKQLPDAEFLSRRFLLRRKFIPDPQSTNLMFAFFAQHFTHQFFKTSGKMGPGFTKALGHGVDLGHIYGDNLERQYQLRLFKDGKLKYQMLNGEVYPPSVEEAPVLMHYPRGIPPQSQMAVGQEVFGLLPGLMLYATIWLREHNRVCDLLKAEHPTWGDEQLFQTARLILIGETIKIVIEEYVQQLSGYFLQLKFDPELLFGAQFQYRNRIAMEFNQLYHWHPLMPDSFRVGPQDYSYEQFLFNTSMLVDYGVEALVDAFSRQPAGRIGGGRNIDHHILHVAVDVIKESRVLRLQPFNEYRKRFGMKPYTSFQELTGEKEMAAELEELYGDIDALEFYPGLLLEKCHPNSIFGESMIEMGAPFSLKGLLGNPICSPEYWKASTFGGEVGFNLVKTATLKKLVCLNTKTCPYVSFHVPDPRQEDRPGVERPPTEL

Columns and labels:
[1] = target: rat Acetylcholinesterase (AChE), Ache (gene 83817) (UniProt P37136); experiment: NVS_ENZ_rAChE: NovaScreen (NVS) Enzymatic Assay for rat Acetylcholinesterase (AChE) (AID 2283233)
How it was run: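 Rat brain membrane acetylcholinesterase activity measured colorimetrically 0.33 h after compound addition, loss of signal relative to DMSO. Primary screen in duplicate at 25 uM; actives re-run as concentration-response with 50 uM top concentration.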

[2] = target: human Adenosine A2a Receptor (AdoRA2a), ADORA2A (gene 135) (UniProt P29274); experiment: NVS_GPCR_hAdoRA2a: NovaScreen (NVS) G Protein-Coupled Receptor Assay for human Adenosine A2a Receptor (AdoRA2a) (AID 2283256)
How it was run: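 Radioligand displacement on HEK293-derived membrane protein, cell-free; filter-based scintillation counting 1.5 hours after dosing, loss of signal vs DMSO. Single-point duplicate screen at 25 uM, actives retested in concentration series.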

[3] = target: human Adenosine A1 Receptor (AdoRA1), ADORA1 (gene 134) (UniProt P30542); experiment: NVS_GPCR_hAdoRA1: NovaScreen (NVS) G Protein-Coupled Receptor Assay for human Adenosine A1 Receptor (AdoRA1) (AID 2283254)
How it was run: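 Radioligand competition binding on human cortical membranes, 1 h after compound addition; bound radioactivity read by filtration and scintillation counting. Loss of signal versus DMSO baseline scored as displacement; primary screen duplicate at 25 uM, actives retested in concentration series.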

[4] = target: D(1A) dopamine receptor (Homo sapiens) (UniProt P21728); experiment: NVS_GPCR_hDRD1: NovaScreen (NVS) G Protein-Coupled Receptor Assay for human Dopamine Receptor D1 (DRD1) (AID 2283269)
How it was run: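 Cell-free competition with radioligand, filter-trapped and scintillation-counted 1 h post-dose, using HEK293-derived human D1 preparation. Duplicate single-point testing at 25 uM first, then concentration series for actives; DMSO served as baseline, loss-of-signal scored.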

[5] = target: rat Adenylate Cyclase, Forskolin Stimulated, Adcy5 (gene 64532) (UniProt Q04400); experiment: NVS_ENZ_rACFSKBinding: NovaScreen (NVS) Enzymatic Assay for rat Adenylate Cyclase, Forskolin Stimulated (AID 2283232)
How it was run: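 Rat forebrain membrane preparation, cell-free, read 1 h after dosing by filter-based scintillation counting. Primary screen in duplicate at 25 uM; actives (e.g. ≥30% inhibition) rerun in concentration-response up to 50 uM; fit versus DMSO.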

[6] = tested on: rat Monoamine Oxidase, MAO-A, Peripheral (MAOAP), gene 29253; experiment: NVS_ENZ_rMAOAP: NovaScreen (NVS) Enzymatic Assay for rat Monoamine Oxidase, MAO-A, Peripheral (MAOAP) (AID 2283237)
How it was run: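 Rat liver mitochondrial membranes served as the MAO-A source, with enzyme activity measured by radiometric scintillation counting 1.17 hours after dosing. Loss of signal was fitted against DMSO; primary screen used 25 uM in duplicate, follow-up used concentration series.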

[7] = target: chimpanzee Androgen Receptor (AR), AR (gene 747460) (UniProt O97775); experiment: NVS_NR_cAR: NovaScreen (NVS) Nuclear Receptor Binding Assay for chimpanzee Androgen Receptor (AR) (AID 2283346);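 note: radioligand displacement from AR measured by scintillation counting in a cell-free assay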
How it was run: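 Cell-free radioligand displacement using receptor protein extracted from Sf9/Sf21 cells; bound radioligand measured by scintillation counting 72 hours after chemical dosing. Loss of signal versus DMSO baseline indicates binding; primary screen single-concentration in duplicate at 25 uM, actives followed in concentration series.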

[8] = target: Peroxisome proliferator-activated receptor gamma (Homo sapiens) (UniProt P37231); experiment: NVS_NR_hPPARg: NovaScreen (NVS) Nuclear Receptor Binding Assay for human Peroxisome Proliferator-activated Receptor gamma (PPARg) (AID 2283370)
How it was run: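 Extracted receptor protein, cell-free; compound incubated 2 h then fluorescence polarization read. Baseline: DMSO. Actives from 25 uM duplicate screen re-run across concentrations.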

[9] = target: Retinoic acid receptor RXR-alpha (Homo sapiens) (UniProt P19793); experiment: OT_NURR1_NURR1RXRa_0480: Odyssey Thera (OT) 8-hour HEK293T Protein Complementation Assay for Nurr1/retinoid X receptor (RXR) (AID 2283385)
How it was run: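 8 h compound exposure, HEK293T; Nurr1/RXRα fragment complementation; fluorescence intensity; positive fitting direction vs DMSO baseline.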

[10] = target: Peroxisome proliferator-activated receptor gamma (Homo sapiens) (UniProt P37231); experiment: OT_PPARg_PPARgSRC1_0480: Odyssey Thera (OT) 8-hour Protein-Complementation Assay for Peroxisome Proliferator-activated Receptor Gamma / SRC-1 Co-activator (AID 2283387);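 note: nuclear to cytoplasmic split Venus YFP fluorescence ratio reporting PPARg SRC-1 interaction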
How it was run: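 Protein-fragment complementation of split Venus YFP reports PPARg/SRC-1 interaction in HEK293T (transfected 48 h before treatment), exposed 8 h. Readout: N/C fluorescence ratio at 488 nm from imaging, Draq5 for segmentation, positive fit relative to DMSO.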

[11] = target: Peroxisome proliferator-activated receptor gamma (Homo sapiens) (UniProt P37231); experiment: OT_PPARg_PPARgSRC1_1440: Odyssey Thera (OT) 24-hour Protein-Complementation Assay for Peroxisome Proliferator-activated Receptor Gamma/ SRC-1 Co-activator (AID 2283388);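 note: nuclear to cytoplasmic ratio of reconstituted Venus YFP fluorescence in fixed imaged cells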
How it was run: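 Cells carrying the PPARg/SRC-1 fragment-complementation reporter receive compound for 24 hours, are fixed and counterstained with Draq5, then imaged. Increased nuclear relative to cytoplasmic YFP fluorescence above DMSO baseline indicates binding activity.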

[12] = read-out: Tumor necrosis factor receptor superfamily member 6 (Homo sapiens) (UniProt P25445); experiment: LTEA_HepaRG_FAS: Life Technologies and Expression Analysis (LTEA) Assay for Fas cell surface death receptor (FAS) using HepaRG (AID 2283447; active = hit-call score of the fitted dose curve at least 0.9, where 1 is the maximum; inactive = score below 0.9); conditions: actives raise or lower the signal; mRNA level, 48 h
How it was run: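 Differentiated human HepaRG cells, pre-cultured 48 h, were exposed in duplicate for 48 h to 8-point half-log concentrations (top 100 uM, 0.5% DMSO) in serum-free induction medium; FAS mRNA measured by qRT-PCR, normalized to ACTB/GAPDH/POLR2A, bidirectional fit versus DMSO.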

[13] = read-out: Fatty acid synthase (Homo sapiens) (UniProt P49327); experiment: LTEA_HepaRG_FASN: Life Technologies and Expression Analysis (LTEA) Assay for Fatty Acid Synthase (FASN) using HepaRG (AID 2283448; active = hit-call score of the fitted dose curve at least 0.9, where 1 is the maximum; inactive = score below 0.9); conditions: actives raise or lower the signal; mRNA level, 48 h
How it was run: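 FASN expression changes, up or down relative to 0.5% DMSO, were measured by qRT-PCR in human HepaRG cells after 48 h treatment with chemicals at eight concentrations (half-log steps from 100 uM).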

[14] = read-out: Cyclin D2 (CCND2), CCND2 (gene 894); experiment: LTEA_HepaRG_CCND2: Life Technologies and Expression Analysis (LTEA) Assay for Cyclin D2 (CCND2) using HepaRG (AID 2283449; active = hit-call score of the fitted dose curve at least 0.9, where 1 is the maximum; inactive = score below 0.9;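 note: CCND2 transcript measured by TaqMan qRT-PCR and normalised to three housekeeping genes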); conditions: actives raise or lower the signal; mRNA level, 48 h
How it was run: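 Differentiated human HepaRG cells were exposed for 48 h in serum-free induction medium to eight half-log concentrations topping at 100 uM (0.5% DMSO vehicle). CCND2 mRNA was quantified by TaqMan qRT-PCR, normalised to ACTB, GAPDH and POLR2A, and fitted bidirectionally against DMSO.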

[15] = read-out: Cyclin Dependent Kinase Inhibitor 1A (CDKN1A), CDKN1A (gene 1026); experiment: LTEA_HepaRG_CDKN1A: Life Technologies and Expression Analysis (LTEA) Assay for Cyclin Dependent Kinase Inhibitor 1A (CDKN1A) using HepaRG (AID 2283450; active = hit-call score of the fitted dose curve at least 0.9, where 1 is the maximum; inactive = score below 0.9); conditions: actives raise or lower the signal; mRNA level, 48 h
How it was run: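 Gain or loss of CDKN1A transcript is scored by bidirectional fitting against 0.5% DMSO vehicle. Human HepaRG cultures receive chemicals for 48 h across an 8-point series peaking at 100 uM; expression comes from qRT-PCR.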

[16] = read-out: Cyclin D1 (CCND1), CCND1 (gene 595); experiment: LTEA_HepaRG_CCND1: Life Technologies and Expression Analysis (LTEA) Assay for Cyclin D1 (CCND1) using HepaRG (AID 2283451; active = hit-call score of the fitted dose curve at least 0.9, where 1 is the maximum; inactive = score below 0.9); conditions: actives raise or lower the signal; mRNA level, 48 h
How it was run: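 Expression change is measured by qRT-PCR in HepaRG cells after 48 h treatment across eight concentrations topping at 100 uM, with duplicate wells and DMSO (0.5%) serving as baseline for bidirectional fitting.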

[17] = read-out: catalase (CAT), CAT (gene 847); experiment: LTEA_HepaRG_CAT: Life Technologies and Expression Analysis (LTEA) Assay for catalase (CAT) using HepaRG (AID 2283452; active = hit-call score of the fitted dose curve at least 0.9, where 1 is the maximum; inactive = score below 0.9); conditions: actives raise or lower the signal; mRNA level, 48 h
How it was run: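 Differentiated HepaRG cells in serum-free induction medium were dosed 48 h in duplicate, eight half-log concentrations from 100 uM in 0.5% DMSO. Transcript measured by TaqMan qRT-PCR, normalised to ACTB/GAPDH/POLR2A, fitted bidirectionally against DMSO.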

[18] = read-out: flavin-containing dimethylaniline monooxygenases 3 (FMO3), FMO3 (gene 2328); experiment: LTEA_HepaRG_FMO3: Life Technologies and Expression Analysis (LTEA) Assay for flavin-containing dimethylaniline monooxygenases 3 (FMO3) using HepaRG (AID 2283453; active = hit-call score of the fitted dose curve at least 0.9, where 1 is the maximum; inactive = score below 0.9); conditions: actives raise or lower the signal; mRNA level, 48 h
How it was run: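 Differentiated HepaRG cells in serum-free induction medium, exposed 48 h in duplicate to 8 half-log concentrations up to 100 uM in 0.5% DMSO. FMO3 mRNA by qRT-PCR, normalized to ACTB, GAPDH, POLR2A; bidirectional fit vs DMSO.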

[19] = target: sheep Cyclooxygenase-1 (Cox1), PTGS1 (gene 443551) (UniProt P05979); experiment: NVS_ENZ_oCOX1: NovaScreen (NVS) Enzymatic Assay for sheep Cyclooxygenase-1 (Cox1) (AID 2283239);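 note: actives reduce cyclooxygenase activity so potencies are for inhibitors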
How it was run: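 Tested in duplicate at 25 uM, then in concentration series if active, against seminal vesicle extract from sheep. Enzyme activity was measured colorimetrically at 0.66 hour and normalised to DMSO.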

[20] = target: Retinoic acid receptor RXR-alpha (Homo sapiens) (UniProt P19793); experiment: OT_NURR1_NURR1RXRa_1440: Odyssey Thera (OT) 24-hour HEK293T Protein Complementation Assay for Nurr1/retinoid X receptor (RXR) (AID 2283386)
How it was run: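 Interaction of Nurr1 with RXRα brings fused reporter fragments together in human HEK293T cells, restoring a functional reporter. Fluorescence intensity is measured 24 h after chemical treatment, and values are analysed in the positive direction against DMSO.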

## Cc1c([N+](=O)[O-])cccc1[N+](=O)[O-]
[1]
  AC50: active: 25.8 µM

## COc1ccc([N+](=O)[O-])cc1[N+](=O)[O-]
[1]
  AC50: active: 17.9 µM

## ClCCNCCCl
[2]
  outcome: inactive

## Cc1cccc([N+](=O)[O-])c1[N+](=O)[O-]
[1]
  AC50: active: 14.2 µM

## Cc1ccc([N+](=O)[O-])c([N+](=O)[O-])c1
[1]
  AC50: active: 12.2 µM

## CC(C)OP(OC(C)C)OC(C)C
[3]
  outcome: inactive
[4]
  outcome: inactive

## O=[N+]([O-])c1ccccc1[N+](=O)[O-]
[5]
  outcome: inactive
[6]
  AC50: active: 10.1 µM
[7]
  AC50: active: 18.5 µM
[8]
  outcome: inactive
[9]
  outcome: inactive
[10]
  outcome: inactive
[11]
  outcome: inactive
[12]
  outcome: inactive
[13]
  outcome: inactive
[14]
  outcome: inactive
[15]
  outcome: inactive
[16]
  outcome: inactive
[17]
  outcome: inactive
[18]
  outcome: inactive

## Cc1ccc([N+](=O)[O-])cc1[N+](=O)[O-]
[1]
  outcome: inactive

## ClCCOP(OCCCl)OCCCl
[19]
  outcome: inactive
[8]
  outcome: inactive
[20]
  outcome: inactive
[10]
  outcome: inactive
[11]
  outcome: inactive
